The target in this assay is T1, COX-2 (Mus musculus, UniProt Q05769).
T1 sequence (Q05769 18-604): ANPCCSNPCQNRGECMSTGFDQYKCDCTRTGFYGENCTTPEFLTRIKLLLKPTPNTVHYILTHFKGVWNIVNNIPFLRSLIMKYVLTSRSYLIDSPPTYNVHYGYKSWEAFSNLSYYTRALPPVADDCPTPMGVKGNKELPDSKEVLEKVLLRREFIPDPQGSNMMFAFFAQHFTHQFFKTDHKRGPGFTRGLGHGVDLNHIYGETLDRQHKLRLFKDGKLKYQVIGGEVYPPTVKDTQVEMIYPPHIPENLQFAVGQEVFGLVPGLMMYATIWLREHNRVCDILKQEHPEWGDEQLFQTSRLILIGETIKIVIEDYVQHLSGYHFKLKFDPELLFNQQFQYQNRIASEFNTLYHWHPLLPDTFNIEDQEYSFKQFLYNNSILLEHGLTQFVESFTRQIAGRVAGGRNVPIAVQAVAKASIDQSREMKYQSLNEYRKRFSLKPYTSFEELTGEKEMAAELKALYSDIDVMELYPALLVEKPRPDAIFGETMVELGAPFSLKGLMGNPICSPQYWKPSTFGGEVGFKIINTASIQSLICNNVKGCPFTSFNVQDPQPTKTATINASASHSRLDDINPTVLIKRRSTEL
Briefly: Evaluation of COX-2 activity: PGE2 formation in aspirin-treated, LPS-stimulated mouse peritoneal macrophages. It is filed as cell-based. The procedure:
Evaluation of in vitro COX-2 and COX-1 Activity [J. Pharmacol. Exp. Ther. 166, 96 (1969)]
The abdominal skin of a C57BL/6 mouse was sanitized with 70% aqueous ethanol, and was removed without damaging the peritoneum. 5 ml of cold phosphate buffer solution (PBS) was then injected into the abdominal cavity. After a minute, the peritoneal fluid containing the macrophages was collected using a syringe and a needle. The collected fluid was centrifuged for 5 min at 1500 rpm to afford pellets of cells. The pellets were then dispersed in the RPMI-1640 culture medium containing 100 units/ml penicillin and 100 μg/ml streptomycin.
The pellets dispersed as above were treated with 500 μM aspirin in order to knock out the activity of the COX-1 enzymes in the cells. The suspension was then diluted with the RPMI-1640 medium to contain 1×10^6 cells/ml. […] The amount of PGE2 present in the collected solution was determined either by a known radio-immuno assay or by a known enzyme-immunoassay [Methods in Enzymol. […] The extent of COX-2 inhibition by a compound of the present invention was calculated by assuming, that the amount of PGE2 formed with the treatment of 10 μg/ml arachidonic acid was used is the maximum possible amount of PGE2, and that the amount of PGE2 formed without the treatment of arachidonic acid is the minimum possible amount of PGE2. […]

≈ marks a conversion by molar mass, not a printed value.

Regarding `CC1(C)OC(c2ccc(S(C)(=O)=O)cc2)=C(c2ccccc2Cl)C1=O` [Example 69], the “IC50, μg/ml COX-2” value is 0.3 µg/mL (≈ 0.796 µM). In the case of `CC1(C)OC(c2ccc(S(C)(=O)=O)cc2)=C(c2ccc(F)c(F)c2)C1=O` [Example 80] it was 0.05 µg/mL (≈ 0.132 µM).

Values taken from US6492416B1, “4,5-diaryl-3(2H)-furanone derivatives as cyclooxygenase-2 inhibitors” (Pacific Corporation, priority 1999, dated 2002).
